From patent publication EP0739343B1, “WATER SOLUBLE ONIUM SALT OF TAXO-DITERPENOID” (THE SCRIPPS RESEARCH INSTITUTE, priority 1994, dated 1995)

Test system: human lung carcinoma xenografts
Assay: Lung tumor xenograft nude mouse model
Type: in vivo, nude mice
Conditions: A549 implanted S.C., I.P. on day 1, 3 and 7, taxol-2'-MPT 23.9 mg/kg; preliminary data; 0.001 p-value different from controls

SMILES: CC(=O)O[C@H]1C(=O)[C@@]2(C)[C@H]([C@H](OC(=O)c3ccccc3)[C@]3(O)C[C@H](OC(=O)[C@H](Oc4cccc[n+]4C)[C@@H](NC(=O)c4ccccc4)c4ccccc4)C(C)=C1C3(C)C)[C@]1(OC(C)=O)CO[C@@H]1C[C@@H]2O [compound 2, Taxol-2'-MPT]
- control of tumor growth: at least comparable to that of taxol
